{
  "sequences": {"note": "Chains of the proteins cited; added tags and fusions are not shown.", "UniProt P41145, whole entry": "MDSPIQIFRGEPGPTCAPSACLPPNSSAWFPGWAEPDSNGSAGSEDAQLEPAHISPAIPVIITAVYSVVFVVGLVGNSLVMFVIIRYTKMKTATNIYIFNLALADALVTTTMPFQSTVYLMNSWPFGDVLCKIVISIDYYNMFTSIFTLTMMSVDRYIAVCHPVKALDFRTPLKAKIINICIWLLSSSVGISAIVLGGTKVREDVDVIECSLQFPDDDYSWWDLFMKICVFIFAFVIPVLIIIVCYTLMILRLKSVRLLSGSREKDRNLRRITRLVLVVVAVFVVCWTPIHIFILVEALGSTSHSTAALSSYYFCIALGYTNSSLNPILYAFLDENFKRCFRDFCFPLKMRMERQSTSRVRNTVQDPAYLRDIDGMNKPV"},
  "source": "PubChem BioAssay AID1777",
  "about": "(Sanford-Burnham Center for Chemical Genomics, 2009)",
  "note": "The entries are a selection whose mix differs from that of the whole data set. Results with a measured potency or affinity are listed apart. Some of these compounds have results that are not shown, active ones among them. The source made the active and inactive calls. Rule as the data show it: active = activation above about 50% (passing the limit was not always enough); inactive = the rest.",
  "data": [
    {"molecular_target": "Kappa-type opioid receptor (Homo sapiens) (UniProt P41145)", "experiment": "KOR agonists, beta-arrestin recruitment, primary screen, cell-based, luminescence, uHTS (AID 1777)", "conditions": "at 10 µM, stronger effect = higher value", "values": [
      {"molecule": "O=C(NCC1(N2CCCCC2)CCCCC1)c1cc(F)c(F)cc1Cl", "activation": "inactive: -1.9%"},
      {"molecule": "C=CCN1CCN(CCOC(=O)C(O)(c2ccccc2)c2ccccc2)CC1", "activation": "inactive: -1.3%"},
      {"molecule": "O=C(NCC1(N2CCCCC2)CCCCC1)c1cccc(Br)c1", "activation": "inactive: 1.3%"},
      {"molecule": "CCN1CCCC(OC(=O)C2(O)c3ccccc3C=Cc3ccccc32)C1", "note": "(centres undefined)", "activation": "inactive: 0%"},
      {"molecule": "Cc1cc(C(=O)NCC2(N3CCCCC3)CCCCC2)ccc1[N+](=O)[O-]", "activation": "inactive: -4.7%"},
      {"molecule": "COc1ccc(C(=O)NCC2(N(C)C)CCCCC2)cc1", "activation": "inactive: 1.2%"},
      {"molecule": "CN(C)c1ccc(C(=O)NCC2(N(C)C)CCCCC2)cc1", "activation": "inactive: -5%"},
      {"molecule": "CN(C)C1CCCC1OC(=O)C(O)(c1ccccc1)c1ccccc1", "note": "(centres undefined)", "activation": "inactive: -6.8%"},
      {"molecule": "Cc1ccccc1C(=O)NCC1(N2CCCCC2)CCCCC1", "activation": "inactive: 5.3%"},
      {"molecule": "CC(C)N1C(=O)CC2(CCN(CCOC(=O)C(O)(c3ccccc3)c3ccccc3)CC2)C1=O", "activation": "inactive: 5.2%"},
      {"molecule": "COc1cc(SC)ccc1C(=O)NCC1(N(C)C)CCCCC1", "activation": "inactive: 0.5%"},
      {"molecule": "CCN(CC)CC(C)C(C)OC(=O)C(O)(c1ccccc1)c1ccccc1", "note": "(centres undefined)", "activation": "inactive: 6.1%"},
      {"molecule": "Cc1ccc(C(=O)NCC2(N3CCCCC3)CCCCC2)cc1", "activation": "inactive: -0.7%"},
      {"molecule": "O=C(NCC1(N2CCCCC2)CCCCC1)c1cc([N+](=O)[O-])ccc1Cl", "activation": "inactive: -6.4%"},
      {"molecule": "CN1[C@@H]2CC[C@H]1CC(OC(=O)C(O)(c1ccccc1)c1ccccc1)C2", "note": "(some centres undefined)", "activation": "inactive: -1.8%"},
      {"molecule": "COc1ccc(Br)c(C(=O)NCC2(N3CCCCC3)CCCCC2)c1", "activation": "inactive: 1.4%"},
      {"molecule": "CN(C)c1cccc(C(=O)NCC2(N(C)C)CCCCC2)c1", "activation": "inactive: 7.8%"},
      {"molecule": "CC(C)Oc1ccc(C(=O)NCC2(N(C)C)CCCCC2)cc1", "activation": "inactive: 0.1%"},
      {"molecule": "O=C(OC1CN2CCC1CC2)C(CO)(c1ccccc1)c1ccccc1", "note": "(centres undefined)", "activation": "inactive: 2.5%"},
      {"molecule": "COc1ccc(Cl)cc1C(=O)NCC1(N(C)C)CCCCC1", "activation": "inactive: -1.3%"},
      {"molecule": "COc1cccc(C(=O)NCC2(N3CCCCC3)CCCCC2)c1", "activation": "inactive: 2.5%"},
      {"molecule": "O=C(NCC1(N2CCCCC2)CCCCC1)c1cccc(Cl)c1", "activation": "inactive: 0.8%"},
      {"molecule": "CN(C)C1(CNC(=O)c2ccc(Br)cc2)CCCCC1", "activation": "inactive: -7.5%"},
      {"molecule": "COc1cc(C(=O)NCC2(N(C)C)CCCCC2)c([N+](=O)[O-])cc1OC", "activation": "inactive: 3.1%"}
    ]}
  ]
}
